# Reported vapor pressure values for industrial, environmental and drug-like chemicals

Values as listed in the OPERA 2.9 repository of K. Mansouri.

Vapor pressure is log10 of mmHg; the set covers 15 to 30 °C, mostly 20 to 25 °C. "n/a" marks a cell with nothing listed here. "via" names the databases from which the curators took the value.

| compound | name | log VP (log10 mmHg) | via |
|---|---|---|---|
| C[C@H]1O[C@H](O[C@H]2[C@H](O)[C@@H](O)[C@@H](O)[C@H](O)[C@@H]2O)[C@@H](N)C[C@@H]1NC(=N)C(=O)O | Kasugamycin | -7 | OCHEM |
| O=C(Cl)C(=O)Cl | Ethanedioyl dichloride | 2.176 | eChemPortal |
| ClC=CCCl | 1,3-Dichloropropene | 1.477 | OCHEM |
| O=C(CCl)OC(=O)CCl | 2-Chloroacetic anhydride | -1.429 | OCHEM, PubChem |
| CSCCC(O)C#N (configuration not stated) | Butanenitrile, 2-hydroxy-4-(methylthio)- | -3.25 | eChemPortal |
| C=CP(=O)(O)O | Phosphonic acid, P-ethenyl- | -6.51 | eChemPortal |
| Cc1cc(C(C)(C)C)c(OP2COC3(COP(Oc4c(C(C)(C)C)cc(C)cc4C(C)(C)C)OC3)OC2)c(C(C)(C)C)c1 (configuration not stated) | n/a | -9.084 | eChemPortal |
| Clc1cccc(-c2cc(Cl)c(Cl)c(Cl)c2Cl)c1 | 2,3,3',4,5-Pentachlorobiphenyl | -4.425 | OCHEM |
| FC(F)C(F)(F)COC(F)(F)C(F)F | (2H-Perfluoroethyl)(1H,1H,3H-perfluoropropyl)ether | 1.616 | ICF |
| CCCCCCCCCCOC(=O)c1ccccc1C(=O)OCCCCCCCCCC | Didecyl phthalate | -7.86 | OFMPub |
| CC(Oc1ccc(Oc2ccc(Cl)cc2Cl)cc1)C(=O)O (configuration not stated) | Diclofop | -10.63 | OCHEM |
| Nc1ccc([N+](=O)[O-])cc1Cl | 2-Chloro-4-nitroaniline | -5.462 | PubChem |
| O=S(=O)([O-])[O-].OC[P+](CO)(CO)CO.OC[P+](CO)(CO)CO | Tetrakis(hydroxymethyl)phosphonium sulfate | -5.71 | eChemPortal |
| O=C(Cl)c1cccc(C(=O)Cl)c1 | 1,3-Benzenedicarbonyl dichloride | -2.664 | eChemPortal |
| CCn1cc(C(=O)O)c(=O)c2cc3c(cc21)OCO3 | Oxolinic acid | -5.959 | OCHEM |
| c1ccc2c(c1)CCNC2 | 1,2,3,4-Tetrahydroisoquinoline | -1.474 | eChemPortal |
| Clc1ccccc1-c1c(Cl)cccc1Cl | 2,2',6-Trichlorobiphenyl | -2.907 | OCHEM |
| CN1C2CCC1CC(OC(=O)C(CO)c1ccccc1)C2.CN1C2CCC1CC(OC(=O)C(CO)c1ccccc1)C2.O=S(=O)(O)O (configuration not stated) | Atropine sulfate anhydrous (2:1) salt | -7.712 | OCHEM |
| ClCCc1ccccc1 | 1-Chloro-2-phenylethane | 0.227 | OCHEM |
| O=[N+]([O-])c1cccc(Cl)c1Cl | 2,3-Dichloronitrobenzene | -1.824 | eChemPortal |
| FC(F)C(F)(F)OCC(F)(F)C(F)(F)F | Perfluoroethyl 2H-perfluoroethyl ether | 2.074 | ICF |
| Clc1ccc(-c2cc(Cl)c(Cl)c(Cl)c2Cl)c(Cl)c1 | 2,2',3,4,4',5-Hexachlorobiphenyl | -4.745 | OCHEM |
| Clc1ccc2oc3cc(Cl)c(Cl)cc3c2c1 | 2,3,8-Trichlorodibenzofuran | -4.095 | OCHEM |
| Oc1c(O)c(Cl)c(Cl)c(Cl)c1Cl | n/a | -3.295 | OCHEM |
| O=C(Cl)CCCCl | 4-Chlorobutyryl chloride | -0.008 | eChemPortal |
| CC(C)(C)N=C=O | tert-Butyl isocyanate | 1.773 | eChemPortal |
| Clc1ccc(-c2c(Cl)cc(Cl)cc2Cl)cc1 | n/a | -3.943 | OCHEM |
| CSC(=O)c1c(C(F)F)nc(C(F)(F)F)c(C(=O)SC)c1CC(C)C | Dithiopyr | -5.398 | PubChem |
| CNC(C)C(O)c1ccccc1.Cl (configuration not stated) | n/a | -7.634 | eChemPortal |
| C1CCC(NC2CCCCC2)CC1.CC(C)(O)c1ccccc1CCC(SCC1(CC(=O)O)CC1)c1cccc(/C=C/c2ccc3ccc(Cl)cc3n2)c1 (stereo partly drawn) | n/a | -7.326 | eChemPortal |
| O=C(O)COc1ccc(Cl)cc1 | 4-Chlorophenoxyacetic acid | -6.745 | OCHEM |
| CC(=O)O[C@H]1CC[C@H]2[C@@H]3CC[C@H]4CC(=O)C[C@H](C)[C@]4(C)[C@H]3CC[C@]12C | n/a | -8.894 | eChemPortal |
| Clc1ccc(-c2cc(Cl)c(Cl)c(Cl)c2Cl)cc1 | 2,3,4,4',5-Pentachlorobiphenyl | -4.375 | OCHEM |
| CSC(C)(C)C=NO | Aldicarb oxime | -1 | OFMPub, PubChem |
| C[N+](C)(C)C.[Cl-] | Tetramethylammonium chloride | -9.966 | eChemPortal |
| Clc1cc(Cl)c(-c2c(Cl)c(Cl)c(Cl)c(Cl)c2Cl)cc1Cl | 2,2',3,4,4',5,5',6-Octachlorobiphenyl | -5.996 | OCHEM |
| CCCCC(=O)Cl | Valeryl chloride | 0.943 | eChemPortal |
| Oc1cc(Cl)c(Cl)cc1O | 4,5-Dichlorocatechol | -2.514 | OCHEM |
| C#CC1(O)CCCCC1 | 1-Ethynylcyclohexanol | -0.523 | eChemPortal |
| COc1cc(OC)nc(NC(=O)NS(=O)(=O)c2ncccc2C(=O)N(C)C)n1 | Nicosulfuron | -6.097 | PubChem |
| CC(=O)Nc1ccc2c(c1)Cc1ccccc1-2 | 2-Acetylaminofluorene | -3.638 | PubChem |
| CCOCN(C(=O)CCl)c1c(C)cccc1CC | Acetochlor | -6.783 | OCHEM |
| CC(C)CON=O | Isobutyl nitrite | 1 | PubChem |
| COC(F)(F)C(F)C(F)(F)F (configuration not stated) | 1,1,1,2,3,3-Hexafluoro-3-methoxypropane | 2.425 | ICF |
| CCS(=O)(=O)c1nc2ccccn2c1S(=O)(=O)NC(=O)Nc1nc(OC)cc(OC)n1 | Sulfosulfuron | -9.18 | OCHEM, PubChem |
| FC(C(F)(F)F)C(F)(F)OCC(F)(F)F (configuration not stated) | (2H-Perfluoropropyl)(1H,1H-perfluoroethyl)ether | 1.972 | ICF |
| N#Cc1cccc(C#N)c1 | 1,3-Benzenedicarbonitrile | -2 | PubChem |
| N#C[S-].[K+] | Potassium thiocyanate | -10 | eChemPortal |
| C[C@]12CCC(=O)C=C1CC[C@@H]1[C@@H]2CC[C@]2(C)C(=O)CC[C@@H]12 | 4-Androstene-3,17-dione | -7.824 | eChemPortal |
| Nc1ccc(Cl)cc1Cl | 2,4-Dichloroaniline | -2.037 | eChemPortal |

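The numbers are reported measurements, compiled and curated for the OPERA QSAR suite. The files give a single number for a compound and property, which may rest on several reports. Conditions of the individual experiments are not part of the data. The measured form (salt, isomer or mixture) is not always the one drawn. Unmarked limits or estimates from the upstream databases cannot be ruled out.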